{"source": "patent EP0662975B1", "about": "“2-SUBSTITUTED ADENOSINES WITH A-2 RECEPTOR AFFINITY” (priority 1992, dated 1994)", "origin": "cited, not measured here", "test_system": "adenosine receptors", "conditions": "in vivo; cited from earlier work", "data": [{"compound": "CCCn1c(=O)c2[nH]c(-c3ccc(OCC(=O)NCCN)cc3)nc2n(CCC)c1=O", "note": "[XAC, amino congener of 8-phenyl-1,3-dipropylxanthine]", "values": [{"measurement": "antagonizing the effects of adenosine analogs on heart rate vs blood pressure", "value": "much more potent in antagonizing the effects of adenosine analogs on heart rate than on blood pressure"}]}]}
